Test results reported in EPA's ToxValDB 9.5.

Key:
[1] = tested on: Rattus norvegicus; details: chronic; duration: 93 days; inhalation; M/F; Sprague-Dawley; neurological
[2] = tested on: Mus musculus; details: inhalation, whole body, neurological
[3] = tested on: Mus musculus; details: short-term; duration: 11 days; inhalation; F; cerebellar lesions
[4] = tested on: Rattus norvegicus; details: acute, oral
[5] = tested on: Rattus norvegicus; details: chronic; oral; diet; M; renal effects: urothelial hyperplasia

SMILES: CCl [Chloromethane]
- NOAEL [1]: 105 mg/m3
- LOAEL ([2]; chronic, duration: 24 months, M/F, B6C3F1): 105 mg/m3
- NOAEL ([2]; short-term, duration: 11 days, F, C57BL/6): 103 mg/m3
- LOAEL [3]: 206 mg/m3
- NOAEL [3]: 103 mg/m3

SMILES: CC(C)CCC(C)Nc1ccc(Nc2ccccc2)cc1 (centres undefined) [N-(5-Methyl-2-hexyl)-N'-phenyl-p-phenylenediamine]
- LD50 ([4]; gavage, Wistar): 2100 mg/kg

SMILES: CC(O)C(=O)O (centres undefined) [Lactic acid]
- LD50 [4]: ≥ 3540 mg/kg

SMILES: [O-][Br+2]([O-])[O-] [Bromate]
- LOAEL [5]: 6.1 mg/kg-day
- NOAEL [5]: 1.1 mg/kg-day
